Source: patent US20240166598A1, “COMPOUNDS, COMPOSITIONS, AND METHODS OF USING THE SAME” (priority 2021, published 2024)

Experiments:
[1] = target: T1, SARS CoV-2 PLpro (Severe acute respiratory syndrome coronavirus 2 (2019-nCoV) (SARS-CoV-2), UniProt P0DTD1); assay: cell-based; conditions: FlipGFP-PLpro assay EC50
[2] = target: T1, SARS CoV-2 PLpro; assay: biochemical; conditions: FRET Enzymatic assay IC50
[3] = target: T1, SARS CoV-2 PLpro; assay: biochemical
[4] = target: T1, SARS CoV-2 PLpro; assay: biochemical; remark: listed apart in the source

Compound	EC50 [1] [nM]	IC50 [2] [nM]	other results
Cc1ccc(NC2CNC2)cc1C(=O)N[C@H](C)c1cccc(-c2ccc(CN[C@H]3CC[C@@H](C(=O)O)C3)s2)c1 [Example 157, (1R,3S)-3-(((5-(3-((R)-1-(5-(azetidin-3-ylamino)-2-methylbenzamido)ethyl)phenyl)thiophen-2-yl)methyl)amino)cyclopentane-1-carboxylic acid]	> 60000	600	–
Cc1ccc(OC2CNC2)cc1C(=O)N[C@H](C)c1cccc(-c2ccc(CN3C(=O)[C@@H]4CC[C@H]3C4)s2)c1	> 10000	1910 ± 110	–
Cc1ccc(OC2CCNCC2)cc1C(=O)N[C@H](C)c1cccc(-c2ccc(CNC3CCCC3)s2)c1	> 60000	1770 ± 200	–
Cc1ccc(OC2CNC2)cc1C(=O)N[C@H](C)c1cccc(-c2ccc(CNC3CCCC3)o2)c1	> 20000	3490 ± 350	–
Cc1ccc(NC2CNC2)cc1C(=O)N[C@H](C)c1cccc(-c2cc(C)c(CN[C@H]3CC[C@@H](O)C3)s2)c1	–	–	IC50 ([3]; Enzymatic assay IC50): 328 nM
Cc1ccc(NC2CNC2)cc1C(=O)N[C@H](C)c1cccc(-c2ccc(CNC3CCCC3)s2)c1 [XR8-23]	–	–	Kd ([4]; KD1): 259 nM; Kd ([4]; KD2): 277 nM; Kd ([4]; KD3): 196 nM; Kd ([4]; KD4): 209 nM
Cc1ccc(OC2CNC2)cc1C(=O)N[C@H](C)c1cccc(-c2ccc(CN[C@H]3CC[C@@H](C(=O)O)C3)s2)c1	> 60000	580 ± 70	–
Cc1ccc(OC2CNC2)cc1C(=O)N[C@H](C)c1cccc(-c2ccc(CN[C@H]3CC[C@@H](C(=O)OC[C@H]4O[C@@H](n5ccc(N)nc5=O)[C@H](O)[C@@H]4O)C3)s2)c1	> 20000	800 ± 80	–
Cc1ccc(N)cc1C(=O)N[C@H](C)c1cccc(-c2ccc(CN[C@H]3CC[C@@H](O)C3)s2)c1 [XR8-106]	–	–	IC50 ([3]; IC50): 1400 nM; Kd ([4]; KD): 2200 nM
